Columns and labels:
[1] = system: H1299 human lung adenocarcinoma (p53 null) cells; experiment: cell proliferation assay, H1299; type: cell-based; conditions: Table 3 summary of most active compounds
Source text: (§1) In this Example, the warfarin neoglycosides of the invention were screened for anti-tumor activity in cell proliferation assays using the following tumor cells lines: A549—human lung adenocarcinoma; H1299—human lung adenocarcinoma (p53 null); HCT-15—human colorectal adenocarcinoma; HT-29—human colorectal adenocarcinoma; MCF7—human breast adenocarcinoma; NCI-H460—human lung adenocarcinoma; SF-268—human CNS adenocarcinoma; and SKOV-3—human ovarian adenocarcinoma.
(§2) All cell lines were maintained as previously reported (see Langenhan, J. M.; Peters, N. R.; Guzei, I. A.; Hoffmann, F. M.; Thorson, J. S. Proc. Natl. Acad. Sci. USA 2005, 102, 12305-12310, which is incorporated by reference herein). Cells were harvested using 0.25% trypsin and 0.1% EDTA and counted in a Cellometer Auto T4 cell counter (Nexcelom, Inc.) prior to dilution for assay plating. Cells were plated at a denity of 500 cells per well in 50 μL volumes in 384-well clear-bottom tissue culture plates (Corning-Costar, Inc.).
(§3) Compounds were added from the 384-well compound stock plates at a 1:100 dilution using a Biomek FX liquid handler equipped with a 384-channel head (Beckman Coulter, Inc.). […] Luminescence resulting from incubation with Calcein AM and EthD-1 was read using a Safire-2 microplate reader at the appropriate wavelengths. […] The luminescence of each plate was re-read to confirm the observed inhibition. […]

[2] = system: MCF7 human breast adenocarcinoma cells; experiment: cell proliferation assay, MCF7; type: cell-based; conditions: Table 3 summary of most active compounds, listed as D-lyxose
Source text: as §1, §2, §3

SMILES | IC50 ([1]; listed as D-lyxose) [µM] | IC50 [2] [µM] | IC50 ([1]; listed as L-ribose) [µM]
CON(C(C)CC(c1ccccc1)c1c(O)c2ccccc2oc1=O)C1OCC(O)C(O)C1O (mixture of isomers) [WARF Analog 6] | 28 | 28 | –
CON(C(C)CC(c1ccccc1)c1c(O)c2ccccc2oc1=O)C1OCC(O)C(O)C1O (mixture of isomers) [WARF Analog 25] | – | – | 35
